Data published in patent US8575359B2, “Acid-sensitive linkers for drug delivery” (The Regents of the University of California, priority 2006, dated 2013).

Settings: buffer

Substance: N-ethoxybenzylimidazole-doxorubicin Conjugate [Compound 9]
- half-life (t1/2) for hydrolysis at pH=7.4 by RP-HPLC: 1150 hours
- half-life for hydrolysis at pH=5.5 by RP-HPLC: 55 hours
